From PMC7723054
The list shows a part of the results.

T1: LIN28A (human?, UniProt Q9H9Z2 1-209)
T1 sequence: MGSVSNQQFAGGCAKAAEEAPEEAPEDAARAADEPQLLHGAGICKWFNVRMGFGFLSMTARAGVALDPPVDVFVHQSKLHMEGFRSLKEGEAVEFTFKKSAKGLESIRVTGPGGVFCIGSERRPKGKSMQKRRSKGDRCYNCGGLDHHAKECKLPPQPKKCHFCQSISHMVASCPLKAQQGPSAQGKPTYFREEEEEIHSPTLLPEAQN

T2: CIRBP (Homo sapiens, UniProt Q14011 1-172)
T2 sequence: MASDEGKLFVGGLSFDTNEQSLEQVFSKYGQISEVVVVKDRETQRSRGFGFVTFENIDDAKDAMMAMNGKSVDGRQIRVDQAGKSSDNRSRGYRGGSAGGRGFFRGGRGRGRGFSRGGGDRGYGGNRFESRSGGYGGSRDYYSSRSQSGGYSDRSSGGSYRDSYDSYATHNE

T3: DHX36 (Homo sapiens, UniProt Q9H2U1 1-1008)
T3 sequence: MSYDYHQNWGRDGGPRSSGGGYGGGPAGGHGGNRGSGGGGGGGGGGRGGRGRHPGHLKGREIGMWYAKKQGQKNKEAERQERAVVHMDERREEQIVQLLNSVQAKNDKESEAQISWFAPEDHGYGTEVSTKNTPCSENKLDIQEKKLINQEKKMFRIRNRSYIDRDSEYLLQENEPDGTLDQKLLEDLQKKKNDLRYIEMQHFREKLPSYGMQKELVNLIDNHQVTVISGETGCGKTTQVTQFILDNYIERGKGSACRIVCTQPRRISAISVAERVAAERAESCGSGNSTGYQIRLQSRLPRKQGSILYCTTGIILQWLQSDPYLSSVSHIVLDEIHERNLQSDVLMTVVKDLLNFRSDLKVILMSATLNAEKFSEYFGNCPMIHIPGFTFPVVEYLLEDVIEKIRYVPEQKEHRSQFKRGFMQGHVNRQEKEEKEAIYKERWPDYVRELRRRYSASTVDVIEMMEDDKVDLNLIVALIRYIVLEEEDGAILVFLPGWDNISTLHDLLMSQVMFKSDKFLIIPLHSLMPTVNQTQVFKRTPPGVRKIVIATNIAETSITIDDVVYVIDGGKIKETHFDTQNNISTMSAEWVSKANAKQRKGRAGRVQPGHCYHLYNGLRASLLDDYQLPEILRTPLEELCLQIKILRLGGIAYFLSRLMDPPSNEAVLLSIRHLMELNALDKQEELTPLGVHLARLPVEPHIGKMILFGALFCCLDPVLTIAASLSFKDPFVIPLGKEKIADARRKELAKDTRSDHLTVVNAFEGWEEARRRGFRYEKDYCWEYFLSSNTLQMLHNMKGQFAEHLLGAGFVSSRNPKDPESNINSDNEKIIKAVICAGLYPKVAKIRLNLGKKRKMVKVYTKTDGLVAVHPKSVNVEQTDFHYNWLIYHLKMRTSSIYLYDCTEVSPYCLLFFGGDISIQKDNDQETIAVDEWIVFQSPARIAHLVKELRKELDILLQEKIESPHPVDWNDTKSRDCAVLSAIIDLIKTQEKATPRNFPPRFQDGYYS

B1: PARIS_ID10 (structured_RNA)
RNA: GGGAAAGUCAGGACCUACGACGACUCACGGUGUACGAAGUUUCAGCGUCAUGUGUCUGCUGGUGAUGCUGAAGCUUCGUGCAC
B2: NEAT1_ParasoR_ID32 (structured_RNA)
RNA: GGGAACGGGGUGCUCCAUACCUAAUAUUGGUGUACGAAGUUUCAGCUCCUGUAAGGCAAGAAUAUUCUCUCUGUUGGAACUCAAAUACACAGAACUGGGUAAAUCUCAAUCUUAAUCUUUGAUUCAGGAGCUGAAGCUUCGUGCAC
B3: hsa-mir-4509-1_4509-3_4509-2 (structured_RNA)
RNA: GGGAAUGAUGGGAUCCAUAAGACCAGUCGGUGUACGAAGUUUCAGCUUUUCCCUUUCUCUUGCCCUGAAAGCUGAAGCUUCGUGCAC
B4: hsa-mir-296 (structured_RNA)
RNA: GGGACCGAUAUCGUGAGAGGACGAGUUGGGUGUACGAAGUUUCAGCCUGUUGUGCCUAAUUCAGAGGCUGAAGCUUCGUGCAC
B5: PARIS_ID19 (structured_RNA)
RNA: GGGCCAAUGUAAACUGAGUGGCAAUUAGGGUGUACGAAGUUUCAGCUAUAGAAAAAGGCCAUGUAGAAGAUAAAAGUUCCUCUAUAGCUGAAGCUUCGUGCAC
B6: hsa-mir-6769b (structured_RNA)
RNA: GGGAGAGGCCAGAGAAUCAUUUACGGUCGGUGUACGAAGUUUCAGCAAGUGCCGUCCUCAUGAGCCCCUGCUGAAGCUUCGUGCAC
B7: hsa-mir-5190 (structured_RNA)
RNA: GGGAGGGAGUUUCCCUUUCGACAUCAGCGGUGUACGAAGUUUCAGCAUGGUUAAUGUUCCACAGCCAGCUGAAGCUUCGUGCAC
B8: hsa-mir-200b (structured_RNA)
RNA: GGGAAGCGUGGUAUCUAUAUCGUACAAGGGUGUACGAAGUUUCAGCAUUGGAUGGAGUCAGGUCUCUAAUGCUGAAGCUUCGUGCAC
B9: hsa-mir-566 (structured_RNA)
RNA: GGGACGCCUGCCUGGAAACCGUUGAUAUGGUGUACGAAGUUUCAGCCAACUACUCAGGAGGCUGGCUGAAGCUUCGUGCAC
B10: hsa-mir-1266 (structured_RNA)
RNA: GGGACCAGACUCUGGGAGUAGAGUACAAGGUGUACGAAGUUUCAGCAGGGCUGGGAUUACUAAAGCCCUGCUGAAGCUUCGUGCAC
B11: hsa-mir-431 (structured_RNA)
RNA: GGGAAGGGUAACUUGGAUGUACGGACUUGGUGUACGAAGUUUCAGCCAUGCAGGCCACACUGACGGUAACGUUGCAGGGCUGAAGCUUCGUGCAC
B12: hsa-mir-376a-1 (structured_RNA)
RNA: GGGAAAGCACUAUCCUAUUGCCGACCGGGGUGUACGAAGUUUCAGCUGAGUACAUUAUUUAUGAUUAAUCAGCUGAAGCUUCGUGCAC
B13: hsa-let-7g (structured_RNA)
RNA: GGGAAAACGCGGUAAUUCAUAACGGAUAGGUGUACGAAGUUUCAGCACAGUUUGAGGGUCUAUGAUACCACCCGGUACAGGAGAUAACUGUGCUGAAGCUUCGUGCAC
B14: hsa-mir-4417 (structured_RNA)
RNA: GGGAAGCGCAAGGCACGUUAUCAAUCCCGGUGUACGAAGUUUCAGCGGGCGGAACACCCAGCCCCGCUGAAGCUUCGUGCAC
B15: PARIS_ID32 (structured_RNA)
RNA: GGGAACGGGGACUAAGUGACAGCACCUUGGUGUACGAAGUUUCAGCUGGUCUUGUAAUUAAAAUUCAAACACUAUAGAAAAAGGCCAGCUGAAGCUUCGUGCAC
B16: hsa-mir-7976 (structured_RNA)
RNA: GGGACAACACUCUGCGUUCCAGUAAGCUGGUGUACGAAGUUUCAGCGCUCUAAUAAUUUAUUCUAAUAAUAAUUUAGAUCGCUGAAGCUUCGUGCAC
B17: hsa-mir-370 (structured_RNA)
RNA: GGGAAACUUGACCAAGCGUGUAGAAUUUGGUGUACGAAGUUUCAGCAGUUACACAGCUCACGAGUGCCUGCUGAAGCUUCGUGCAC
B18: hsa-mir-6086 (structured_RNA)
RNA: GGGAUAACUGGAAAGUUCGAACUCCGACGGUGUACGAAGUUUCAGCAGAGAUGAGCAUAAAGUUUUUGCUGAAGCUUCGUGCAC
B19: hsa-mir-5001 (structured_RNA)
RNA: GGGACCUAAAGAGACCGAAGCCCUGUAUGGUGUACGAAGUUUCAGCGGAGCUGGCUGCUGGCCUCAGUUCUGCUGAAGCUUCGUGCAC
B20: hsa-mir-132 (structured_RNA)
RNA: GGGACUAGCAUGACGCUGAAUAUUAGCAGGUGUACGAAGUUUCAGCGUUACUGUGGGAACUGGAGGUAACGCUGAAGCUUCGUGCAC
B21: hsa-mir-183 (structured_RNA)
RNA: GGGAACAACUUAGCGCACCUCCGUAUCAGGUGUACGAAGUUUCAGCUCACUGUGAACAGUCUCAGUCAGUGAGCUGAAGCUUCGUGCAC
B22: hsa-mir-424 (structured_RNA)
RNA: GGGAGAGGACCCUAUGGUUCACUGCACGGGUGUACGAAGUUUCAGCUUUGAAGUGUUCUAAAUGGUUCAAAGCUGAAGCUUCGUGCAC
B23: hsa-mir-4487 (structured_RNA)
RNA: GGGACCCACCGUUUGCUAGUCUACGGUAGGUGUACGAAGUUUCAGCAGCUGGCUGAAGGGCAGAAGGGAACUGUCCUUCAGCCAGAGGCUGAAGCUUCGUGCAC

Experiments:
Experiment in all cases: FOREST: bead pull-down of RNA structure library v1, barcode microarray; U1A/LIN28A: 20 mM HEPES pH 7.5, 80 mM KCl, 20 mM NaCl, 10% glycerol, 2 mM DTT, 0.1 ug/uL BSA, 4 C; BG4/CIRBP/DHX36: 10 mM Tris-HCl pH 7.5, 100 mM KCl (or LiCl),; high values mean tight binding
U1A = U1A (Homo sapiens, UniProt P09012)
LIN28A = molecular target: T1, LIN28A
CIRBP = molecular target: T2, CIRBP
DHX36 = molecular target: T3, DHX36

| Binder | binding signal (U1A) | binding signal (LIN28A) | binding signal (CIRBP) | binding signal (DHX36) |
| --- | --- | --- | --- | --- |
| B1 | 0.304 z-score | 0.617 z-score | 0.0883 z-score | -0.238 z-score |
| B2 | 0.309 z-score | 0.402 z-score | -0.722 z-score | -0.141 z-score |
| B3 | 0.315 z-score | -0.67 z-score | 0.801 z-score | 0.25 z-score |
| B4 | 0.316 z-score | 0.291 z-score | 1.02 z-score | 1.39 z-score |
| B5 | 0.314 z-score | 1.06 z-score | 0.42 z-score | 1.14 z-score |
| B6 | 0.319 z-score | -0.217 z-score | 0.726 z-score | 0.635 z-score |
| B7 | 0.317 z-score | -1.84 z-score | -1.52 z-score | 0.494 z-score |
| B8 | 0.318 z-score | 0.329 z-score | -0.187 z-score | 1.24 z-score |
| B9 | 0.297 z-score | -0.856 z-score | 0.408 z-score | -0.842 z-score |
| B10 | 0.309 z-score | 1.38 z-score | -1.07 z-score | 0.317 z-score |
| B11 | 0.309 z-score | -0.492 z-score | -1.62 z-score | -0.218 z-score |
| B12 | 0.318 z-score | -0.299 z-score | -0.789 z-score | -1.31 z-score |
| B13 | 1.89 z-score | 2.69 z-score | 0.967 z-score | 0.877 z-score |
| B14 | 0.3 z-score | 0.615 z-score | 0.823 z-score | 0.991 z-score |
| B15 | 1.9 z-score | 0.862 z-score | 0.414 z-score | 0.328 z-score |
| B16 | 0.309 z-score | -1.44 z-score | -0.963 z-score | -0.957 z-score |
| B17 | 0.314 z-score | 0.225 z-score | 0.0612 z-score | -0.563 z-score |
| B18 | 0.321 z-score | 0.697 z-score | -0.754 z-score | 0.327 z-score |
| B19 | 0.3 z-score | -0.474 z-score | 1.81 z-score | 0.0699 z-score |
| B20 | 0.302 z-score | 0.418 z-score | -0.724 z-score | 0.187 z-score |
| B21 | 0.314 z-score | -0.993 z-score | -0.988 z-score | -0.764 z-score |
| B22 | 0.319 z-score | -1.81 z-score | -1.15 z-score | – |
| B23 | 0.319 z-score | -1.17 z-score | -0.349 z-score | -0.295 z-score |
